Experimental findings from patent US12152019B2, “Arylalkyl pyrazole compounds as indoleamine 2,3-dioxygenase inhibitors” (Merck Sharp & Dohme LLC, priority 2018, dated 2024) are described below.

The chains behind the UniProt entries cited, without tags or fusion partners.
UniProt P14902, whole entry: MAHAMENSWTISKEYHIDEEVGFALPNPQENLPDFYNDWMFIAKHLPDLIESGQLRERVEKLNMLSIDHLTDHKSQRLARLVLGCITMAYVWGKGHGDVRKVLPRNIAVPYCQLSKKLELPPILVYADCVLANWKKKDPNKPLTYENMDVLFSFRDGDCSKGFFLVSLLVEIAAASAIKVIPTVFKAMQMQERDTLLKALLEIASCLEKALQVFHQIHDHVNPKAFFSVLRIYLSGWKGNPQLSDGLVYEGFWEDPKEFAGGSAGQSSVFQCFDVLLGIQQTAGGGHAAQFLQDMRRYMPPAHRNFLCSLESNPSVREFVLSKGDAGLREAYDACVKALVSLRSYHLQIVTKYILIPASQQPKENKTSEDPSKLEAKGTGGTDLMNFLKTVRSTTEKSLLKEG

This test deals with IDO1 (Homo sapiens, UniProt P14902). Nature of the test: IDO1 Cellular Assay in HeLa Cells Stimulated with IFNγ. It counts as cell-based. The conditions noted are these: HeLa cells stimulated with IFNγ 100 ng/mL, 300 uM L-tryptophan, about 48 hours, fluorescence readout; read-out: HeLa Cell Potency, IC50.
Consider `Cc1ccc(Cl)c(O[C@H]2CC[C@@H](CCn3nc(C(=O)N4CCC(F)(CO)CC4)c4c3CCC4)CC2)c1` [Example 58, (1-(2-((1s,4s)-4-(2-chloro-5-methylphenoxy)cyclohexyl)ethyl)-1,4,5,6-tetrahydrocyclopenta[c]pyrazol-3-yl)(4-fluoro-4-(hydroxymethyl)piperidin-1-yl)methanone], for which the IC50 amounted to 1.6 nM.

Consider `CC(=O)NC1CCN(C(=O)c2nn(CCN3CCN(c4cccc(C)c4C)CC3)c3c2[C@@H]2C[C@@H]2C3)CC1` [Example 100, N-(1-((3bR,4aR)-1-(2-(4-(2,3-dimethylphenyl)piperazin-1-yl)ethyl)-3b,4,4a,5-tetrahydro-1H-cyclopropa[3.4]cyclopenta[1,2-c]pyrazole-3-carbonyl)piperidin-4-yl)acetamide], for which the IC50 worked out at 2.32 nM. Turning to `Cc1cccc(N2CCN(CCn3nc(C(=O)N4CCCC4)c4ccccc43)CC2)c1C` [Example 75, (1-(2-(4-(2,3-dimethylphenyl)piperazin-1-yl)ethyl)-1H-indazol-3-yl)(pyrrolidin-1-yl)methanone], the IC50 turned out to be 203 nM. Then `Cc1cccnc1O[C@H]1CC[C@@H](CCn2nc(C(=O)N3CCC(NC(=O)OC(C)(C)C)CC3)c3c2C[C@H]2C[C@@H]32)CC1` [Example 89, tert-butyl {1-[(3bR,4aR)-1-(2-{cis-4-[(3-methylpyridin-2-yl)oxy]cyclohexyl}ethyl)-3b,4,4a,5-tetrahydro-1H-cyclopropa[3,4]cyclopenta [1,2-c]pyrazole-3-carbonyl]piperidin-4-yl}carbamate], with 3.37 nM; and `Cc1cccnc1O[C@H]1CC[C@@H](CCn2nc(C(=O)N3CCC(C)(O)CC3)c3c2C[C@H]2C[C@@H]32)CC1` [Example 92, (4-hydroxy-4-methylpiperidin-1-yl)[(3bR,4aR)-1-(2-{cis-4-[(3-methylpyridin-2-yl)oxy]cyclohexyl}ethyl)-3b,4,4a,5-tetrahydro-1H-cyclopropa[3,4]cyclopenta[1,2-c]pyrazol-3-yl]methanone], with 1.41 nM. Then `Cc1c(Cl)cccc1N1CCC(O)(CCn2nc(C(=O)N3CC[C@H](O)[C@H](F)C3)c3c2C[C@H]2C[C@@H]32)CC1` [Example 97, ((3bR,4aR)-1-(2-(1-(3-chloro-2-methylphenyl)-4-hydroxypiperidin-4-yl)ethyl)-3b,4,4a,5-tetrahydro-1H-cyclopropa[3,4]cyclopenta[1,2-c]pyrazol-3-yl)((3R,4S)-3-fluoro-4-hydroxypiperidin-1-yl)methanone], with 21.4 nM; and `Cc1cccnc1O[C@H]1CC[C@@H](CCn2nc(C(=O)N3CCC(NC(=O)OC(C)(C)C)CC3)c3c2CCC(F)(F)C3)CC1` [Example 86, tert-butyl {1-[5,5-difluoro-1-(2-{cis-4-[(3-methylpyridin-2-yl)oxy]cyclohexyl}ethyl)-4,5,6,7-tetrahydro-1H-indazole-3-carbonyl]piperidin-4-yl}carbamate], with 26.8 nM; and `Cc1ccc(Cl)c(O[C@H]2CC[C@H](CCn3nc(C(=O)N4CCC(F)(CO)CC4)c4c3CCC4)CC2)c1` [Example 60, (1-(2-((1r,4r)-4-(2-chloro-5-methylphenoxy)cyclohexyl)ethyl)-1,4,5,6-tetrahydrocyclopenta[c]pyrazol-3-yl)(4-fluoro-4-(hydroxymethyl)piperidin-1-yl)methanone], with 47.3 nM. Then `CC(=O)NC1CCN(C(=O)c2nn(CCC3CCN(c4ccncc4C)CC3)c3c2CCCC3)CC1` [Example 32, N-[1-[1-[2-[1-(3-methyl-4-pyridyl)-4-piperidyl]ethyl]-4,5,6,7-tetrahydroindazole-3-carbonyl]-4-piperidyl]acetamide], with 42.4 nM; and `CC(=O)NC1CCN(C(=O)c2nn(C[C@@H]3C[C@@H](Oc4ccc(Cl)cn4)CCO3)c3c2CC(F)(F)CC3)CC1` [Example 76, N-(1-(1-(((2S,4S)-4-((5-chloropyridin-2-yl)oxy)tetrahydro-2H-pyran-2-yl)methyl)-5,5-difluoro-4,5,6,7-tetrahydro-1H-indazole-3-carbonyl)piperidin-4-yl)acetamide], with 2.18 nM; and `CC(=O)NC1CCN(C(=O)c2nn(CC[C@H]3CC[C@@H](Oc4ccc(C)nc4C)CC3)c3c2CCC3)CC1` [Example 67, N-(1-(1-(2-((1s,4s)-4-((2,6-dimethylpyridin-3-yl)oxy)cyclohexyl)ethyl)-1,4,5,6-tetrahydrocyclopenta[c]pyrazole-3-carbonyl)piperidin-4-yl)acetamide], with 2.33 nM. On to `Cc1cccc(N2CCC(C(O)Cn3nc(C(=O)N4C[C@@H](C)O[C@@H](C)C4)c4c3CCC4)CC2)c1C` (single isomer, unassigned) [Example 43], for which the IC50 came out at 103 nM. Then `COC(Cn1nc(C(=O)N2C[C@@H](C)O[C@@H](C)C2)c2c1CCC2)C1CCN(c2cccc(C)c2C)CC1` (single isomer, unassigned) [Example 46], with 66.7 nM. Then `CC(=O)NC1CCN(C(=O)c2nn(CC[C@H]3CC[C@@H](Oc4ncccc4C(F)(F)F)CC3)c3c2CCC3)CC1` [Example 63, N-(1-(1-(2-((1s,4s)-4-((3-(trifluoromethyl)pyridin-2-yl)oxy)cyclohexyl)ethyl)-1,4,5,6-tetrahydrocyclopenta[c]pyrazole-3-carbonyl)piperidin-4-yl)acetamide], with 0.727 nM; and `CC(=O)NC1CCN(C(=O)c2nn(CCC3CCN(c4cnc(C)cn4)CC3)c3c2CCCC3)CC1` [Example 27, N-[1-[1-[2-[1-(5-methylpyrazin-2-yl)-4-piperidyl]ethyl]-4,5,6,7-tetrahydroindazole-3-carbonyl]-4-piperidyl]acetamide], with 7.74 nM. To `O=C(c1nn(C[C@H]2C[C@H](Oc3ncccc3F)CCO2)c2c1[C@@H]1C[C@@H]1C2)N1CCC(OCCO)CC1` [Example 80, 2,6-anhydro-1,3,5-trideoxy-4-O-(3-fluoropyridin-2-yl)-1-{(3bR,4aR)-3-[4-(2-hydroxyethoxy)piperidine-1-carbonyl]-3b,4,4a,5-tetrahydro-1H-cyclopropa[3,4]cyclopenta [1,2-c]pyrazol-1-yl}-D-erythro-hexitol] belongs 12 nM; to `Cc1c(Cl)cccc1O[C@H]1CC[C@H](CCn2nc(C(=O)N3C[C@@H](C)O[C@@H](C)C3)c3c2CCC3)CC1` [Example 54, (1-(2-((1r,4R)-4-(3-chloro-2-methylphenoxy)cyclohexyl)ethyl)-1,4,5,6-tetrahydrocyclopenta[c]pyrazol-3-yl)((2R,6S)-2,6-dimethylmorpholino)methanone], 47.7 nM.

By IC50 is commonly meant the concentration needed to halve the response being measured.
